# In patent publication US8815891B2, “Tricyclic derivative or pharmaceutically acceptable salts thereof, preparation method thereof, and pharmaceutical composition containing the same” (Je Il Pharmaceutical Co., Ltd., priority 2008, dated 2014):
# Sequences of proteins named here, by UniProt entry; tags and fusion partners are left off.
# UniProt P09874, whole entry: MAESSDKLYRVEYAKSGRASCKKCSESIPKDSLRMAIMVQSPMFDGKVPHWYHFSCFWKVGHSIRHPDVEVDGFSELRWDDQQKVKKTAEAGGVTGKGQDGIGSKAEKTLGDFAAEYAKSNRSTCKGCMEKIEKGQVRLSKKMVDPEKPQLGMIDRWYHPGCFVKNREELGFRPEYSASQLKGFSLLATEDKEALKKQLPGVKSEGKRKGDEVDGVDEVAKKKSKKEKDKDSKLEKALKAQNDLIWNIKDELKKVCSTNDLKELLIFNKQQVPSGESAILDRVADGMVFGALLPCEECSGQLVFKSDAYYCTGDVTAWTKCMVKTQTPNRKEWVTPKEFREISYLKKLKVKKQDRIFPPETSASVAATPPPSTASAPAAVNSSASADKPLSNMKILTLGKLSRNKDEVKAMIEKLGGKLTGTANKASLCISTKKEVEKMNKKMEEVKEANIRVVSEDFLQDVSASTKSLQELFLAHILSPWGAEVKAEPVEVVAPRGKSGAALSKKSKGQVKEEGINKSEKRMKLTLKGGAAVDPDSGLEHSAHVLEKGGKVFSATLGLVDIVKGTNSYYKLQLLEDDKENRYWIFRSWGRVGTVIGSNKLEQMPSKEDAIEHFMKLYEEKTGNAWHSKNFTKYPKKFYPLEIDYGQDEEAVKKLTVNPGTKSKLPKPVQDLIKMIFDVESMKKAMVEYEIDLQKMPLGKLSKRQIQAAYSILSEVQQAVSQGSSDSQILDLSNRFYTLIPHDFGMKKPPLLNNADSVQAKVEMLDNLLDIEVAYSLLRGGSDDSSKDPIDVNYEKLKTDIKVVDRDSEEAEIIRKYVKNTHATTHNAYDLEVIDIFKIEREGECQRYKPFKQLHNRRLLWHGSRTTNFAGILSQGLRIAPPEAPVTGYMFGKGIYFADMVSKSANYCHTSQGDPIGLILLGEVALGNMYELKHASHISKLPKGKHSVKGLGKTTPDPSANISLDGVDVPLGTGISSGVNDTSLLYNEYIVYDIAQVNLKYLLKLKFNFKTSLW
# Target: PARP-1 enzyme (Homo sapiens (Human), UniProt P09874)
# Assay: Poly(ADP-ribose)polymerase [PARP-1] enzyme inhibitory activity (Trevigen PARP Assay kit)
# Type: biochemical
# Conditions: read-out: PARP-1 Inhibitory activity IC50; tested form: 2HCl
smiles,measurement,value
O=C(NCCN1CCCCC1)c1ccc2[nH]c(=O)c3c(c2c1)NCCC3,IC50,1.05 µM
